Key:
Assay in all cases: Kinase Profiling Assay
Assay type in all cases: biochemical
Settings in all cases: 100 μM
Aurora-A(h) = target: T1, Aurora-A(h) (Homo sapiens, UniProt O14965)
T1 sequence (O14965 1-403): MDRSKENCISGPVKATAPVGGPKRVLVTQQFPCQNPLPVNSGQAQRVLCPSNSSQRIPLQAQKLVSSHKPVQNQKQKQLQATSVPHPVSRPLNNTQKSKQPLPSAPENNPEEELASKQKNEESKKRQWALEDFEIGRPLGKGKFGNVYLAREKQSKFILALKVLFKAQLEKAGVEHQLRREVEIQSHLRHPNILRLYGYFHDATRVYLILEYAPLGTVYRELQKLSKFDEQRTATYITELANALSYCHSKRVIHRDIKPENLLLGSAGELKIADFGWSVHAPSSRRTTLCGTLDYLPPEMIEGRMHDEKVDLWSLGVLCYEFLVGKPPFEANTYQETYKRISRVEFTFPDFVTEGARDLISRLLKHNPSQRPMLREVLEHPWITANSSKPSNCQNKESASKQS

Protein sequences, listed by entry. Tags and fused reporters are not part of them. Lines headed by an entry give the natural chain unless they say otherwise; changes in a name come on top.
UniProt Q13464: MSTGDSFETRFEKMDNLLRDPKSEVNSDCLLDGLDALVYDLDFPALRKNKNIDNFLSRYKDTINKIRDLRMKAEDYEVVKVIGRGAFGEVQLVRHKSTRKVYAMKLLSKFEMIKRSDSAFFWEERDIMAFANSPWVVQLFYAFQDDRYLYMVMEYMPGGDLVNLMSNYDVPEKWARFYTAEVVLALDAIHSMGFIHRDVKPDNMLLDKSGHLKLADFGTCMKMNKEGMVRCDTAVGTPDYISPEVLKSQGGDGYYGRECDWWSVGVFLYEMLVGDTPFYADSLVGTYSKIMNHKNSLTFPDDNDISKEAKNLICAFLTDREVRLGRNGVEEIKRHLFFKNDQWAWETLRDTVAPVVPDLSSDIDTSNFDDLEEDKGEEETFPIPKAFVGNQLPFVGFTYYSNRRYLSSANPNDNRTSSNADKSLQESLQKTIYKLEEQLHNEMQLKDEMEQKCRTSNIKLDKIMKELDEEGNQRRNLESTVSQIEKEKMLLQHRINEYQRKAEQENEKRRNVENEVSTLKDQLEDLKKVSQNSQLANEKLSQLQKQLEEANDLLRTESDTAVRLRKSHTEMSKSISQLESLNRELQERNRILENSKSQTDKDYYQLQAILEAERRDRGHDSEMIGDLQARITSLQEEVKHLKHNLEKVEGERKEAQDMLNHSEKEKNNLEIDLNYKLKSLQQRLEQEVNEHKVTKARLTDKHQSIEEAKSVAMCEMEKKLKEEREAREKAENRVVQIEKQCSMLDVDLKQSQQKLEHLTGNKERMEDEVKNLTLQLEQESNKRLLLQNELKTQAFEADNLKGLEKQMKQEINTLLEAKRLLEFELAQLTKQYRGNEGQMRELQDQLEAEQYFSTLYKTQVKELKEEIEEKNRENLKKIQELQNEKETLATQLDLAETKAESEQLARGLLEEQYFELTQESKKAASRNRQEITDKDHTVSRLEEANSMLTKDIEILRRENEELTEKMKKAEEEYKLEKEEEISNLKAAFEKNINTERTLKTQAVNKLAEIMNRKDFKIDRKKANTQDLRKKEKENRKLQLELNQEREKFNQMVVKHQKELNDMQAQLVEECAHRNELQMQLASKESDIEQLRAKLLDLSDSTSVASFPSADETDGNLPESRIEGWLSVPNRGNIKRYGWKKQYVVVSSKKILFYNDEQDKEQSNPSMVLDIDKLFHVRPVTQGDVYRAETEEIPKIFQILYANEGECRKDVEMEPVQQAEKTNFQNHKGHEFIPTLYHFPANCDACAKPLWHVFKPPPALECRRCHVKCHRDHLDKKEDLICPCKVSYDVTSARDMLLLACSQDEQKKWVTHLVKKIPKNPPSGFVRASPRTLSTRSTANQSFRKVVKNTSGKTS

JAK3(h) = target: T2, JAK3(h) (Homo sapiens, UniProt P52333)
T2 sequence (P52333 1-1124): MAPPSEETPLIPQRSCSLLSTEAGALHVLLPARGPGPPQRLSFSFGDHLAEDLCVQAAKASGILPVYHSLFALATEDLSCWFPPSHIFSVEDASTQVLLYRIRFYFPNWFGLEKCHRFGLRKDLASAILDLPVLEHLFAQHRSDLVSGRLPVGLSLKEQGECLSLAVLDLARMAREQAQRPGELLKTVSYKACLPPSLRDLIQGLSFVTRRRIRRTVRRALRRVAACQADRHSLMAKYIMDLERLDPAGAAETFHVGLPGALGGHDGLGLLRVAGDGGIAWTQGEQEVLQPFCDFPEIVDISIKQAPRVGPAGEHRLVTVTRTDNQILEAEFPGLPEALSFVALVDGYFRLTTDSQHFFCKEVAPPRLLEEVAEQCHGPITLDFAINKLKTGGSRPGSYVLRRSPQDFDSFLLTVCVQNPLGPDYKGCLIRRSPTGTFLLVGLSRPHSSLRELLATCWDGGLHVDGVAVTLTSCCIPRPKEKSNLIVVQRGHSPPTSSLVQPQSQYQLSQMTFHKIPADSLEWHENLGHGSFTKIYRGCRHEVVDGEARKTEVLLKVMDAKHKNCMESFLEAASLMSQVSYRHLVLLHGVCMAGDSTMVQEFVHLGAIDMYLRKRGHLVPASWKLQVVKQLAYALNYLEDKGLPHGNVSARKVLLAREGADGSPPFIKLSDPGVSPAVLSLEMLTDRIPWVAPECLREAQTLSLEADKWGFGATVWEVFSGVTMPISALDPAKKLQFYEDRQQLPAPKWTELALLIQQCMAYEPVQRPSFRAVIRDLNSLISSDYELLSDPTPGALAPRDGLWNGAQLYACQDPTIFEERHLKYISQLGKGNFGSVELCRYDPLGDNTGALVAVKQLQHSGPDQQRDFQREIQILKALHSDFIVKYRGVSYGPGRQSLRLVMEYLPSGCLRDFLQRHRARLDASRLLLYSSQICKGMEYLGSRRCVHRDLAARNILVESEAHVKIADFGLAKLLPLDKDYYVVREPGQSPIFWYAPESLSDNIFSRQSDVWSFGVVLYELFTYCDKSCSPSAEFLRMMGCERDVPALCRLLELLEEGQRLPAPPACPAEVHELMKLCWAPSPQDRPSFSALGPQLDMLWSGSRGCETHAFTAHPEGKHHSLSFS

ROCK-I(h) = ROCK-I(h) (Homo sapiens, UniProt Q13464)
Ab1(H396P)(h) = Ab1(H396P)(h) (Homo sapiens, UniProt P00519, H396P)
SGK2(h) = target: T3, SGK2(h) (Homo sapiens, UniProt Q9HBY8)
T3 sequence (Q9HBY8 1-367): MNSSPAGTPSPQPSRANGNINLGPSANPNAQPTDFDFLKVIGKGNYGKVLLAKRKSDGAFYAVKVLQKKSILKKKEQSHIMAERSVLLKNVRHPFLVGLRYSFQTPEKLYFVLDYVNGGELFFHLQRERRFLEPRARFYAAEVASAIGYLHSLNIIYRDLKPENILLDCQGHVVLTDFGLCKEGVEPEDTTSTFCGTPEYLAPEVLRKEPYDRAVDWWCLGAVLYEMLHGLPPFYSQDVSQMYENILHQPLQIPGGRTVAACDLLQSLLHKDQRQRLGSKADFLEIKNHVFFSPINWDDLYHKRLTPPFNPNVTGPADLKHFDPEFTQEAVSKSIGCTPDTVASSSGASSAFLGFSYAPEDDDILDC

YARAAARQARAKALNRQLGVA (Mammalian) [MMI-0200]
% activity (Aurora-A(h)): 107% | % activity (JAK3(h)): 117% | % activity (ROCK-I(h)): 117% | % activity (Ab1(H396P)(h)): 121% | % activity (SGK2(h)): 119%

Reference: US10087225B2, “Formulation of MK2 inhibitor peptides” (MOERAE MATRIX, INC., priority 2015, dated 2018)
